Amino acid sequences for entries named in this document (tags omitted).
UniProt P32300, whole entry: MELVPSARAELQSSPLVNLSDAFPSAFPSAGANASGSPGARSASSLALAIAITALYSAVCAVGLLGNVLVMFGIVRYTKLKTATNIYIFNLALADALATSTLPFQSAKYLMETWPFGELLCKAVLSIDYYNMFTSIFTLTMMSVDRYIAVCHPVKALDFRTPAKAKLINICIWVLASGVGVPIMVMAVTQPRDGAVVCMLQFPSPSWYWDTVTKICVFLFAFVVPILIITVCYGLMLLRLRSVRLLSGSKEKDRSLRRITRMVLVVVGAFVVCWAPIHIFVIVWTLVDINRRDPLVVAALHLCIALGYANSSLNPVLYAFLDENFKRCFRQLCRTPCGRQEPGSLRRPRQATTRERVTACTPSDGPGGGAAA

In ChEMBL document CHEMBL1130417 (J Med Chem, 1997):

Biological target: Delta-type opioid receptor (Mus musculus, UniProt P32300)
Test: Agonist activity was evaluated in guinea pig ileum (GPI) preparations at Opioid receptor delta 1
Assay type: functional, tissue-based

CC(NC(=O)[C@@H](N)Cc1ccc(O)cc1)C(=O)N[C@@H](Cc1ccccc1)C(=O)N[C@@H](CC(=O)O)C(=O)N[C@H](C(=O)N[C@H](C(=O)NCC(N)=O)C(C)C)C(C)C (single isomer, unassigned) [DELTORPHIN C]
IC50: 0.85 nM
